According to the NIST ThermoML archive (doi:10.1016/j.jct.2015.02.007):
Numbers after ± are expanded uncertainties.

Assay: xn = mol fraction of the nth substance listed
Conditions: 100 kPa, Liquid; for mass density: Vibrating tube method; for speed of sound: Pulse-echo method

OCCOCCOCCOCCO [tetraethylene glycol] + O
Conditions | mass density [kg/m3] | speed of sound [m/s]
303.15 K, x1 = 0.4024 | 1112.21 ± 0.14 | –
303.15 K, x1 = 0.4964 | 1113.62 ± 0.14 | –
303.15 K, x1 = 0.5985 | 1114.54 ± 0.14 | –
303.15 K, x1 = 0.7018 | 1115.1 ± 0.15 | –
303.15 K, x1 = 0.759 | 1115.31 ± 0.15 | –
303.15 K, x1 = 0.8201 | 1115.48 ± 0.15 | –
303.15 K, x1 = 0.8353 | 1115.52 ± 0.15 | –
303.15 K, x1 = 0.8804 | 1115.62 ± 0.15 | –
303.15 K, x1 = 0.9237 | 1115.71 ± 0.16 | –
303.15 K, x1 = 0.9719 | 1115.84 ± 0.16 | –
303.15 K, x1 = 1 | 1115.94 ± 0.16 | –
308.15 K, x1 = 0.0003 | – | 1521.8 ± 1.4
308.15 K, x1 = 0.0008 | – | 1524.3 ± 1.4
308.15 K, x1 = 0.002 | – | 1530.1 ± 1.4
308.15 K, x1 = 0.0035 | – | 1537.7 ± 1.4
308.15 K, x1 = 0.0054 | – | 1546.8 ± 1.4
308.15 K, x1 = 0.0081 | – | 1558.8 ± 1.3
308.15 K, x1 = 0.0108 | – | 1570.2 ± 1.3
308.15 K, x1 = 0.0116 | 1010.66 ± 0.29 | –
308.15 K, x1 = 0.0149 | – | 1586.6 ± 1.3
308.15 K, x1 = 0.019 | – | 1601.5 ± 1.2
308.15 K, x1 = 0.0203 | 1021.25 ± 0.24 | –
308.15 K, x1 = 0.0233 | – | 1615.5 ± 1.2
308.15 K, x1 = 0.0282 | – | 1630.2 ± 1.2
308.15 K, x1 = 0.0351 | – | 1647.9 ± 1.1
308.15 K, x1 = 0.0406 | 1041.61 ± 0.21 | –
308.15 K, x1 = 0.0413 | – | 1661.4 ± 1.1
308.15 K, x1 = 0.0481 | – | 1674 ± 1.1
308.15 K, x1 = 0.0537 | – | 1682.8 ± 1.1
308.15 K, x1 = 0.0593 | – | 1690.3 ± 1.1
308.15 K, x1 = 0.0605 | 1056.63 ± 0.18 | –
308.15 K, x1 = 0.0659 | – | 1697.7 ± 1.1
308.15 K, x1 = 0.0714 | – | 1702.8 ± 1.1
308.15 K, x1 = 0.0755 | – | 1705.9 ± 1.1
308.15 K, x1 = 0.0806 | 1068.08 ± 0.15 | –
308.15 K, x1 = 0.0811 | – | 1709.5 ± 1.1
308.15 K, x1 = 0.083 | – | 1710.6 ± 1.1
308.15 K, x1 = 0.0851 | – | 1711.6 ± 1.1
308.15 K, x1 = 0.0898 | – | 1713.7 ± 1.1
308.15 K, x1 = 0.0935 | – | 1715 ± 1.1
308.15 K, x1 = 0.0994 | – | 1716.5 ± 1.1
308.15 K, x1 = 0.1007 | – | 1716.8 ± 1.1
308.15 K, x1 = 0.1024 | 1077.49 ± 0.14 | –
308.15 K, x1 = 0.109 | – | 1717.9 ± 1.1
308.15 K, x1 = 0.1109 | – | 1718 ± 1.1
308.15 K, x1 = 0.1132 | – | 1718.1 ± 1.1
308.15 K, x1 = 0.1217 | – | 1717.8 ± 1.1
308.15 K, x1 = 0.1324 | – | 1716.5 ± 1.1
308.15 K, x1 = 0.1412 | – | 1714.8 ± 1.1
308.15 K, x1 = 0.1511 | 1090.92 ± 0.13 | –
308.15 K, x1 = 0.1526 | – | 1711.8 ± 1.1
308.15 K, x1 = 0.1639 | – | 1708.3 ± 1.1
308.15 K, x1 = 0.1746 | – | 1704.7 ± 1.1
308.15 K, x1 = 0.1895 | – | 1699.2 ± 1.1
308.15 K, x1 = 0.2006 | 1098.36 ± 0.13 | –
308.15 K, x1 = 0.2231 | – | 1686 ± 1.1
308.15 K, x1 = 0.25 | 1102.65 ± 0.13 | –
308.15 K, x1 = 0.2635 | – | 1670.6 ± 1.1
308.15 K, x1 = 0.3012 | 1105.35 ± 0.13 | –
308.15 K, x1 = 0.3091 | – | 1655 ± 1.1
308.15 K, x1 = 0.3628 | – | 1639.5 ± 1.1
308.15 K, x1 = 0.4024 | 1108.26 ± 0.14 | –
308.15 K, x1 = 0.4253 | – | 1625 ± 1.1
308.15 K, x1 = 0.4964 | 1109.67 ± 0.14 | –
308.15 K, x1 = 0.5089 | – | 1610.1 ± 1.1
308.15 K, x1 = 0.5893 | – | 1598.9 ± 1.1
308.15 K, x1 = 0.5985 | 1110.59 ± 0.14 | –
308.15 K, x1 = 0.6676 | – | 1589.6 ± 1.1
308.15 K, x1 = 0.7018 | 1111.14 ± 0.15 | –
308.15 K, x1 = 0.759 | 1111.35 ± 0.15 | –
308.15 K, x1 = 0.7748 | – | 1579.7 ± 1.1
308.15 K, x1 = 0.8201 | 1111.52 ± 0.15 | –
308.15 K, x1 = 0.8353 | 1111.55 ± 0.15 | –
308.15 K, x1 = 0.8613 | – | 1574.9 ± 1.1
308.15 K, x1 = 0.8804 | 1111.65 ± 0.15 | –
308.15 K, x1 = 0.9148 | – | 1573.1 ± 1.1
308.15 K, x1 = 0.9237 | 1111.74 ± 0.16 | –
308.15 K, x1 = 0.9645 | – | 1571.2 ± 1.1
308.15 K, x1 = 0.9719 | 1111.87 ± 0.16 | –
308.15 K, x1 = 1 | 1111.96 ± 0.16 | 1568.7 ± 1.1
313.15 K, x1 = 0.0004 | – | 1531.6 ± 1.4
313.15 K, x1 = 0.0009 | – | 1533.7 ± 1.4
313.15 K, x1 = 0.0016 | – | 1537.1 ± 1.3
313.15 K, x1 = 0.0031 | – | 1543.8 ± 1.3
313.15 K, x1 = 0.0057 | – | 1555 ± 1.3
313.15 K, x1 = 0.0086 | – | 1566.8 ± 1.3
313.15 K, x1 = 0.0116 | 1008.56 ± 0.29 | –
313.15 K, x1 = 0.012 | – | 1579.6 ± 1.3
313.15 K, x1 = 0.0155 | – | 1591.7 ± 1.2
313.15 K, x1 = 0.0194 | – | 1604.4 ± 1.2
313.15 K, x1 = 0.0203 | 1018.94 ± 0.23 | –
313.15 K, x1 = 0.0232 | – | 1615.7 ± 1.2
313.15 K, x1 = 0.0274 | – | 1627.2 ± 1.2
313.15 K, x1 = 0.0318 | – | 1638 ± 1.1
313.15 K, x1 = 0.0375 | – | 1650.4 ± 1.1
313.15 K, x1 = 0.0406 | 1038.86 ± 0.21 | –
313.15 K, x1 = 0.0422 | – | 1659.2 ± 1.1
313.15 K, x1 = 0.0478 | – | 1668.7 ± 1.1
313.15 K, x1 = 0.0532 | – | 1676.4 ± 1.1
313.15 K, x1 = 0.0581 | – | 1682.5 ± 1.1
313.15 K, x1 = 0.0605 | 1053.52 ± 0.17 | –
313.15 K, x1 = 0.0629 | – | 1687.7 ± 1.1
313.15 K, x1 = 0.0674 | – | 1691.8 ± 1.1
313.15 K, x1 = 0.073 | – | 1696.2 ± 1.1
313.15 K, x1 = 0.0764 | – | 1698.5 ± 1.1
313.15 K, x1 = 0.0801 | – | 1700.6 ± 1.1
313.15 K, x1 = 0.0806 | 1064.71 ± 0.15 | –
313.15 K, x1 = 0.0846 | – | 1702.7 ± 1.1
313.15 K, x1 = 0.0885 | – | 1704.3 ± 1.1
313.15 K, x1 = 0.0944 | – | 1706 ± 1.1
313.15 K, x1 = 0.0951 | – | 1706.2 ± 1.1
313.15 K, x1 = 0.1024 | 1073.92 ± 0.14 | –
313.15 K, x1 = 0.1028 | – | 1707.5 ± 1.1
313.15 K, x1 = 0.1088 | – | 1707.9 ± 1.1
313.15 K, x1 = 0.1108 | – | 1707.9 ± 1.1
313.15 K, x1 = 0.1131 | – | 1707.9 ± 1.1
313.15 K, x1 = 0.1275 | – | 1706.5 ± 1.1
313.15 K, x1 = 0.1415 | – | 1703.4 ± 1.1
313.15 K, x1 = 0.1511 | 1087.11 ± 0.13 | –
313.15 K, x1 = 0.1573 | – | 1698.7 ± 1.1
313.15 K, x1 = 0.1715 | – | 1693.6 ± 1.1
313.15 K, x1 = 0.1914 | – | 1685.8 ± 1.1
313.15 K, x1 = 0.2006 | 1094.46 ± 0.13 | –
313.15 K, x1 = 0.2132 | – | 1677 ± 1.1
313.15 K, x1 = 0.2363 | – | 1667.7 ± 1.1
313.15 K, x1 = 0.25 | 1098.7 ± 0.13 | –
313.15 K, x1 = 0.2621 | – | 1657.9 ± 1.1
313.15 K, x1 = 0.2912 | – | 1647.7 ± 1.1
313.15 K, x1 = 0.3012 | 1101.38 ± 0.13 | –
313.15 K, x1 = 0.3544 | – | 1628.8 ± 1.1
313.15 K, x1 = 0.4024 | 1104.29 ± 0.13 | –
313.15 K, x1 = 0.404 | – | 1616.7 ± 1.1
313.15 K, x1 = 0.4539 | – | 1606.3 ± 1.1
313.15 K, x1 = 0.4964 | 1105.7 ± 0.14 | –
313.15 K, x1 = 0.5601 | – | 1588.5 ± 1.1
313.15 K, x1 = 0.5985 | 1106.62 ± 0.14 | –
313.15 K, x1 = 0.6931 | – | 1572.9 ± 1.1
313.15 K, x1 = 0.7018 | 1107.18 ± 0.14 | –
313.15 K, x1 = 0.759 | 1107.38 ± 0.15 | –
313.15 K, x1 = 0.8201 | 1107.54 ± 0.15 | –
313.15 K, x1 = 0.8353 | 1107.58 ± 0.15 | –
313.15 K, x1 = 0.8369 | – | 1562.8 ± 1.1
313.15 K, x1 = 0.8804 | 1107.67 ± 0.15 | –
313.15 K, x1 = 0.9134 | – | 1558.7 ± 1.1
313.15 K, x1 = 0.9237 | 1107.77 ± 0.15 | –
313.15 K, x1 = 0.9649 | – | 1555.8 ± 1.1
313.15 K, x1 = 0.9719 | 1107.89 ± 0.16 | –
313.15 K, x1 = 1 | – | 1553.5 ± 1.1
